The record followed here is article PMC11336009, “DPP-4 inhibitors sitagliptin and PF-00734,200 mitigate dopaminergic neurodegeneration, neuroinflammation and behavioral impairment in the rat 6-OHDA model of Parkinson’s disease” (GeroScience, 2024).

Chains of the proteins cited; added tags and fusions are not shown. Residues count along the entry.
UniProt P14740, 37-767: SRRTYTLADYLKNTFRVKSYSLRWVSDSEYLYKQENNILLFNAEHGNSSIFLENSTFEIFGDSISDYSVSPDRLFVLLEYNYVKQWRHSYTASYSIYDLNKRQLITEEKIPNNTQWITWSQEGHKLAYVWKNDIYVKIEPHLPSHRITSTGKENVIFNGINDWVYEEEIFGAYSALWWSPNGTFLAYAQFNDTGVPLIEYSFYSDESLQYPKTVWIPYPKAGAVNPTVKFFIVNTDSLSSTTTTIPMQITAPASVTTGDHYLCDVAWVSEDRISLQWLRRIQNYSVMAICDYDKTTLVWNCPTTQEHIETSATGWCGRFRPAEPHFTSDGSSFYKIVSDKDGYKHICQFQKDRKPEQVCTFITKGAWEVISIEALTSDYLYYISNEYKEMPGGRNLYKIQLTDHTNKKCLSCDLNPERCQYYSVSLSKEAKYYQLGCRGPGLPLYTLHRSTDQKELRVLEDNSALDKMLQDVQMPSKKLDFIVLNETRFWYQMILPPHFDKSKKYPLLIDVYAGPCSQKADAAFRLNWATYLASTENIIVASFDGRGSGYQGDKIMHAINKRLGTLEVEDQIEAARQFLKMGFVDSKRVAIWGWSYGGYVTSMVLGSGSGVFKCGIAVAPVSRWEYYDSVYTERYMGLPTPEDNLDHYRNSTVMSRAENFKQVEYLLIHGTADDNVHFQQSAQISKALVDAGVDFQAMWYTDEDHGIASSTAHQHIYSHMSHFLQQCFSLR

The structures appear in SMILES notation.

The inhibition is the share of the control response that was lost under treatment.

The target in the experiment is DPP-4 (Rattus norvegicus, UniProt P14740). The experiment can be described thus: in vivo. The note with it: po, read-out: Plasma DPP-4 activity inhibition.

Take `N[C@@H](CC(=O)N1CCn2c(nnc2C(F)(F)F)C1)Cc1cc(F)c(F)cc1F` [Sitagliptin]: the inhibition at 30 mg/kg is over 60%.
